# Key:
# [1] = test system: normal peripheral blood-derived mononuclear cells (PBMC); test: resazurin viability assay, PBMC; assay type: cell-based; conditions: read-out: IC50 PBMC, 48 h incubation
# [2] = test system: THP1 acute monocytic leukemia cells; test: resazurin viability assay, THP1; assay type: cell-based, human; conditions: read-out: IC50 THP1, 48 h incubation
# [3] = test system: HL60 promyelocytic leukemia cells; test: resazurin viability assay, HL60; assay type: cell-based, human; conditions: read-out: IC50 HL60, 48 h incubation
# [4] = test system: RPMI8226 myeloma cancer cells; test: resazurin viability assay, RPMI8226; assay type: cell-based, human; conditions: read-out: IC50 RPMI8226, 48 h incubation
# THP1 cells = test: alkaline comet assay, THP1; assay type: cell-based, human; conditions: THP1, 48 h, 0.3 μM
# RPMI8226 cells = test: alkaline comet assay, RPMI8226; assay type: cell-based, human; conditions: RPMI8226, 48 h, 3 µM
structure (smiles),measurement,setting,value
COC(=O)C(N)Cc1ccc(N(CCCl)CCCl)cc1 (stereo not drawn),IC50,[1],2390 nM
same,IC50,[2],320 nM
same,IC50,[3],770 nM
same,IC50,[4],1050 nM
same,"DNA damage (tail DNA), THP1",THP1 cells,~ 15%
same,"DNA damage (tail DNA), RPMI8226",RPMI8226 cells,~ 38%

# Reference: publication PMC7066245 (Scientific Reports, 2020)
